Compounds with a hit are over-represented: about 16% of the library has one in this group of screens.
DT40 TDP1 no CPT: qHTS for Inhibitors of human tyrosyl-DNA phosphodiesterase 1 (TDP1): qHTS in cells in absence of CPT; DT40 Tdp1-/- hTDP1 cells, no CPT, ATP luminescence, 48 h; Potency, µM (highest dose often 46.2 µM), inactives show at the highest dose activity change, negative = growth inhibition, hits mostly inhibitors; actives 15% (n = 420,000); further: potency means the concentration at half of the fitted maximal effect; on the % scale 0 is the no-effect control and ±100 the full control effect; nearly all actives have a fitted effect of over 55% in size
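Growth of hTDP1-complemented DT40 Tdp1-knockout cells is measured by ATP luminescence after at least 48 hr compound exposure at 37 °C, with DMSO substituting for the 20 nM CPT used in the parallel screen.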
DT40 TDP1 CPT: growth inhibition of DT40 Tdp1-/-;hTDP1 cells with camptothecin (screen for TDP1 inhibitors) | actives 12% (n = 420,000) | Potency, µM (doses to about 46.2 µM), for inactives: top-dose activity change, negative = growth inhibition, usual class: inhibitors | chicken DT40 Tdp1-/-;hTDP1 cells + 20 nM CPT, ATP luminescence, 48 h; further: potency means the concentration at half of the fitted maximal effect; on the % scale 0 is the no-effect control and ±100 the full control effect; nearly all actives have a fitted effect of over 55% in size
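Chicken DT40 Tdp1-/- cells stably complemented with human TDP1 were seeded at 400 cells/well in medium containing 20 nM camptothecin, exposed to pin-transferred compounds, and grown at 37 °C for at least 48 hr. Viability was read as ATP luminescence.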
uPA surface inh: cell surface uPA generation inhibition; actives 0.31% (n = 330,000); Potency, µM (highest dose often 38.3 µM), inactives show at the highest dose activity change, negative = inhibition, usual class: inhibitors; cell surface uPA generation assay, qHTS; AID 540303; active means well fitted inhibition curve with a large enough effect; inconclusive means small, poorly fitted or top-dose-only effect; inactive means no such curve, though single readings can be large or run the other way; tested in mouse RAW 264.7 cells; further: potency means the concentration at half of the fitted maximal effect; on the % scale 0 is the no-effect control and ±100 the full control effect; nearly all actives have a fitted effect of over 55% in size
TDP1 inh: TDP1 (human) enzyme inhibition | recombinant TDP1, AlphaScreen DNA substrate cleavage | actives 0.28% (n = 350,000) | Potency, µM (series often up to 130 µM), for inactives: at the top dose activity change, negative = inhibition, actives largely listed as inhibitors | Q9NUW8; further: potency means the concentration at half of the fitted maximal effect; on the % scale 0 is the no-effect control and ±100 the full control effect; nearly all actives have a fitted effect of over 40% in size
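Recombinant E. coli-expressed Tdp1 (1 nM) preincubated with compound 15 min at RT, then 5'-biotin/3'-phosphotyrosine-FITC DNA substrate (15 nM) added for 5 min. AlphaScreen beads (10 ug/ml) added, 10 min RT; tyrosine-FITC cleavage read as signal loss.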
miR-21 reporter: miR-21 reporter, rising signal | HeLa miR-21 FLuc reporter, luciferase, 48 h | Potency, µM (highest dose often 38.3 µM), for inactives: at the top dose reporter change, positive = more light | 340,000 tested, under 10 active | AID 2288; active = well fitted rising curve with a large enough effect; inconclusive = small, poorly fitted or top-dose-only effect; inactive = no such curve, though single readings can be large or run the other way;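 further: % of control where 0% means no effect; miR-21 action dims this reporter so a rising signal means less miR-21 action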
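Using DMEM plus 10% FBS, HeLa miR-21-FLuc cells are incubated with test compounds (final up to about 40uM) for 48 hours; firefly luciferase signal is then imaged following reagent-mediated lysis.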
An asterisk follows results filed as active; u = inconclusive; x = not tested or not shown. Unless noted, the call rests on the fitted dose curve; in most records, active means well fitted curve in the direction sought with a large enough effect; inconclusive means small, poorly fitted or top-dose-only effect, or another doubt; inactive means no such curve, though single readings can be large; an effect the other way counts as inactive or inconclusive.

Sample of the layout:
Value order – DT40 TDP1 no CPT, DT40 TDP1 CPT, uPA surface inh, TDP1 inh, miR-21 reporter
1	COc1cccc(CNC(=O)c2ccc3c(c2)c(C)c(C)n3Cc2ccccc2)c1OC
  23.1µM*, 20.6µM*, x, 10.5%, -14.1%
2	Cc1c(C)n(C)c2ccc(C(=O)NCc3cccc(F)c3)cc12
  16.4µM*, 23.1µM*, x, 7.9%, -12.3%
3	Cc1cccc(Cn2c(C)c(C)c3cc(C(=O)NCc4ccco4)ccc32)c1
  23.1µM*, 16.4µM*, x, 7.9%, 12.4%
4	CN(C)S(=O)(=O)c1cc(NC(=O)C2=COCCO2)ccc1Cl
  16.1%, -6.5%, u, 1.3%, x

The listing, from the first entry:
Value order – DT40 TDP1 no CPT, DT40 TDP1 CPT, uPA surface inh, TDP1 inh, miR-21 reporter
1	COc1cccc(CNC(=O)c2ccc3c(c2)c(C)c(C)n3Cc2ccccc2)c1OC
  23.1µM*, 20.6µM*, x, 10.5%, -14.1%
2	Cc1c(C)n(C)c2ccc(C(=O)NCc3cccc(F)c3)cc12
  16.4µM*, 23.1µM*, x, 7.9%, -12.3%
3	Cc1cccc(Cn2c(C)c(C)c3cc(C(=O)NCc4ccco4)ccc32)c1
  23.1µM*, 16.4µM*, x, 7.9%, 12.4%
4	CN(C)S(=O)(=O)c1cc(NC(=O)C2=COCCO2)ccc1Cl
  16.1%, -6.5%, u, 1.3%, x
5	CCCCS(=O)(=O)N1CCCC(C(=O)Nc2ccc(Cl)cn2)C1 (configuration not stated)
  -25.3%, 8.3%, -8.5%, x, 12.6%
6	CCc1ccccc1NC(=O)c1ccc2c(c1)c(C)c(C)n2Cc1ccccc1
  u, u, x, 7.9%, -17.3%
7	Cc1c(C)n(Cc2ccc(F)cc2)c2ccc(C(=O)NCCCN3CCOCC3)cc12
  16.4µM*, u, -2.9%, 9.2%, 8.9%
8	CCn1c(C)c(C)c2cc(C(=O)NCc3ccc(OC)cc3OC)ccc21
  14.6µM*, 18.4µM*, x, 7.9%, -8.1%
9	CCN(CC)c1ccc(NC(=O)c2ccc3c(c2)c(C)c(C)n3C)cc1
  18.4µM*, 23.1µM*, -9.5%, 9.8%, 14.5%
10	Cc1c(C)n(Cc2ccccc2)c2ccc(C(=O)NCc3ccccc3F)cc12
  18.4µM*, 18.4µM*, x, 10.5%, -20.8%

Value order – DT40 TDP1 no CPT, DT40 TDP1 CPT, uPA surface inh, TDP1 inh, miR-21 reporter
11	Cc1c(C)n(Cc2ccccc2)c2ccc(C(=O)NCCCN3CCOCC3)cc12
  u, u, -6.6%, 10.7%, -0.3%
12	Cc1cccc(NC(=O)CNC(=O)CN2CCN(C)CC2)c1C
  -7.8%, 6.9%, 0.5%, -0.7%, x
13	CCNC(=O)c1sc(-c2ccccc2)nc1C
  -9.5%, -16.9%, -4.6%, 0.0%, -51.8%
14	Cc1ccc(S(=O)(=O)N2CCN(S(=O)(=O)N3CCC(C)CC3)CC2)cc1C
  -17.1%, -6.3%, 1.2%, 7.2%, -1.2%
15	COc1ccccc1CCNC(=O)c1ccc2c(c1)c(C)c(C)n2C
  7.31µM*, 7.31µM*, x, 7.9%, -13.1%
16	CCn1c(C)c(C)c2cc(C(=O)NC3CCCCCC3)ccc21
  20.6µM*, 16.4µM*, 0.5%, 3.0%, -13.3%
17	CCC1CCCCN1CCCNC(=O)c1ccc2c(c1)c(C)c(C)n2CC (configuration not stated)
  u, u, -7.3%, 6.2%, -0.8%
18	COc1ccc2c(CC(=O)NCC3CCC(C(=O)O)CC3)cc(=O)oc2c1 (configuration not stated)
  -4.7%, -1.3%, 6.3%, -4.8%, -2.8%
19	COCCNC(=O)Cc1ccc(NC(=O)N2CCCCc3ccccc32)cc1
  -10.3%, 0.3%, x, 4.5%, -2.2%
20	CC(C)c1ccc(NC(=O)Cc2ccc(NC(=O)N3CCCCc4ccccc43)cc2)cc1
  20.6µM*, 18.4µM*, x, 5.8%, -9.4%

Value order – DT40 TDP1 no CPT, DT40 TDP1 CPT, uPA surface inh, TDP1 inh, miR-21 reporter
21	O=C(Cc1ccc(NC(=O)N2CCCCc3ccccc32)cc1)Nc1ccccc1Br
  20.6µM*, u, x, 1.9%, 12.3%
22	CCn1c(=O)cc(N2CCC3(CC2)OCCO3)[nH]c1=O
  -2.5%, -3.6%, 0.5%, -7.2%, -2.3%
23	Cc1ccc(C2=NN3C(=O)c4ccccc4C3C2)cc1 (configuration not stated)
  u, -29.9%, u, 0.0%, -42.8%
24	COc1ccc2c(c1OC)C(=O)N1N=C(c3ccc(F)cc3)CC21 (configuration not stated)
  16.4µM*, u, -9.0%, 1.8%, -28.9%
25	CCOC(=O)CC1(NC(=O)c2cc(COc3c(F)cccc3F)on2)CCCCC1
  8.2µM*, 11.6µM*, 1.9%, -7.5%, -5.9%
26	COC(=O)[C@H](Cc1ccccc1)NC(=O)c1cc(COc2c(F)cccc2F)on1
  -13.2%, -23.6%, -9.6%, -7.7%, -52.1%
27	CCc1ccc(CN(C)C(=O)c2cc(COc3c(F)cccc3F)on2)cc1
  16.4µM*, 23.1µM*, -1.0%, -2.5%, -17.4%
28	CN(Cc1cc(-c2ccccc2)on1)C(=O)c1cc(COc2c(F)cccc2F)on1
  u, 10.3µM*, -0.8%, 0.0%, -52.9%

High-throughput results: PubChem, National Center for Advancing Translational Sciences (NCATS)
